Key:
Format in all cases: biochemical
Tyk2 = Tyk2 (Homo sapiens (Human), UniProt P29597); assay: Enzyme assay (Assay Example^a 1), Tyk2; settings: ATP 100 μM; Table^a 154; read-out: IC50 (μM) TYK2
JAK3 = JAK3 (Homo sapiens (Human), UniProt P52333); assay: Enzyme assay (Assay Example^a 1), JAK3; settings: read-out: IC50 (μM) JAK3
JAK2 = JAK2 (Homo sapiens (Human), UniProt O60674); assay: Enzyme assay (Assay Example^a 1), JAK2; settings: read-out: IC50 (μM) JAK2
JAK1 = JAK1 (Homo sapiens (Human), UniProt P23458); assay: Enzyme assay (Assay Example^a 1), JAK1; settings: ATP 100 μM; Table^a 154; read-out: IC50 (μM) JAK1

Chains of the proteins cited; added tags and fusions are not shown. Lines headed by an entry give the natural chain unless they say otherwise; changes in a name come on top.
UniProt P29597: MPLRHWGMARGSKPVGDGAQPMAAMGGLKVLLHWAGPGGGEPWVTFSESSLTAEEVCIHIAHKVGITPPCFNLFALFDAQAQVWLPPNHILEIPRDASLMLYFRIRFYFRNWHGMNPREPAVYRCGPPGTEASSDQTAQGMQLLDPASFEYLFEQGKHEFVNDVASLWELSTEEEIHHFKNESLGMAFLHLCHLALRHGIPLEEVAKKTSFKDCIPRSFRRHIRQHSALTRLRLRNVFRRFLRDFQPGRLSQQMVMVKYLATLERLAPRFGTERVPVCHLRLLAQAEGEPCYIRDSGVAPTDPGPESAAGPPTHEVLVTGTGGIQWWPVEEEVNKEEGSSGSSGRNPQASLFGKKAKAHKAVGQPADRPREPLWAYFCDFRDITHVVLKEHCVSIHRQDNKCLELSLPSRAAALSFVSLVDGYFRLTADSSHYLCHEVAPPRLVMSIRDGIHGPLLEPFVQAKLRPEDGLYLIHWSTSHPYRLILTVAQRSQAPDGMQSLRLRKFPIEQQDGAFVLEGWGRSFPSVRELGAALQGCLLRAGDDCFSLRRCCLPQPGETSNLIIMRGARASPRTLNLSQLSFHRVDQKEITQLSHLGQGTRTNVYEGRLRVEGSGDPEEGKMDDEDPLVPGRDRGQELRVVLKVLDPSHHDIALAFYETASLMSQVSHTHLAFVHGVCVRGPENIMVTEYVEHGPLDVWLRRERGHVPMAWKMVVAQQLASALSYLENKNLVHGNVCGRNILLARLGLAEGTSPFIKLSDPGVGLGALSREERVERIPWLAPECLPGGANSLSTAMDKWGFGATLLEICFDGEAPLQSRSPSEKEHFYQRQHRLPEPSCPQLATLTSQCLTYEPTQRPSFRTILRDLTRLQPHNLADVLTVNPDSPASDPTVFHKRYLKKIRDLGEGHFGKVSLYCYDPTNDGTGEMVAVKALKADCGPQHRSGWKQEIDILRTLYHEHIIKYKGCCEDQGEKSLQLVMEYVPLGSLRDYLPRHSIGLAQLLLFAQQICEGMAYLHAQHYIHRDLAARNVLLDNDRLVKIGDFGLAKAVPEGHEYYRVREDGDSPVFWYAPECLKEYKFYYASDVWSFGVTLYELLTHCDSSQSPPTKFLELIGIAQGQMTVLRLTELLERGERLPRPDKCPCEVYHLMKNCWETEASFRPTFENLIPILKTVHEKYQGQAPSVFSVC
UniProt P52333: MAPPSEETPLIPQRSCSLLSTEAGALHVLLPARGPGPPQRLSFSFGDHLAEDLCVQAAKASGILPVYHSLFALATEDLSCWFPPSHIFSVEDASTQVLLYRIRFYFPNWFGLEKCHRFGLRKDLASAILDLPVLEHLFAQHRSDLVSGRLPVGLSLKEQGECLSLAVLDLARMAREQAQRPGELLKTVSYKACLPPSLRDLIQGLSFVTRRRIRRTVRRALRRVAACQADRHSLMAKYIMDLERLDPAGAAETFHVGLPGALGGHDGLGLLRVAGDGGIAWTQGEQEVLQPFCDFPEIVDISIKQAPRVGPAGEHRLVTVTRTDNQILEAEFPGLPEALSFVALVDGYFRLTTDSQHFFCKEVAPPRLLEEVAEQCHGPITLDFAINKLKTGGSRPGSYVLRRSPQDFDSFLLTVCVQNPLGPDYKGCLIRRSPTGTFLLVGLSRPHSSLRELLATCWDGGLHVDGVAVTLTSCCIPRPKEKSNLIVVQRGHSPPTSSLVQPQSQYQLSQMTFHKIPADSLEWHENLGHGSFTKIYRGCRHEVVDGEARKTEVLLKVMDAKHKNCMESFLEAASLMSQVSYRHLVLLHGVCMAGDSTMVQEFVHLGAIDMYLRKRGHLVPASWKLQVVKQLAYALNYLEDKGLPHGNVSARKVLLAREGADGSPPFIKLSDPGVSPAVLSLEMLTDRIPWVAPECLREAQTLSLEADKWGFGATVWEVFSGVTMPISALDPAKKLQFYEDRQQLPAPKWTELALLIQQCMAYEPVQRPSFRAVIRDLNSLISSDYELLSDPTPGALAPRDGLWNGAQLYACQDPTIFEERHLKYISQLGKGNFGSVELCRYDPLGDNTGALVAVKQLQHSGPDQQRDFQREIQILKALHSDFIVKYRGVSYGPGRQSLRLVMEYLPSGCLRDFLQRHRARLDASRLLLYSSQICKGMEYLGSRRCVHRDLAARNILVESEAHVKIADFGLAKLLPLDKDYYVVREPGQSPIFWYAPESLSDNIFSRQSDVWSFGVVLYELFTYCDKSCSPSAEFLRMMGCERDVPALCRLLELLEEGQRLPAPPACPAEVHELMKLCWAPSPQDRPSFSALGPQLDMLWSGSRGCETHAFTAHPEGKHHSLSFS

Structure (SMILES) | IC50 (Tyk2) | IC50 (JAK3) | IC50 (JAK2) | IC50 (JAK1)
CC1(C)CN(C[C@H]2CC[C@H](c3nnn4cnc5[nH]ccc5c34)CC2)C1 [compound 96] | > 1 µM | > 1 µM | 0.21 µM | 0.027 µM
c1ccc(CCN[C@H]2CC[C@H](c3nnn4cnc5[nH]ccc5c34)CC2)cc1 [135b] | – | > 1 µM | – | 0.0063 µM
CN(C[C@H]1CC[C@H](c2nnn3cnc4[nH]ccc4c23)CC1)c1ccc(F)cc1 [compound 102] | > 1 µM | > 1 µM | 0.15 µM | 0.019 µM
N#CCCNC[C@H]1CC[C@H](c2nnn3cnc4[nH]ccc4c23)CC1 [compound 90] | 0.044 µM | – | 0.026 µM | 0.0047 µM
O[C@H]1CC[C@@H](c2nnn3cnc4[nH]ccc4c23)CC1 [compound 83] | 0.096 µM | – | 0.048 µM | 0.0091 µM
c1ccc(CCN[C@H]2CC[C@@H](c3nnn4cnc5[nH]ccc5c34)CC2)cc1 [135a] | > 1 µM | > 1 µM | – | 0.097 µM
FC(F)(F)c1ccc(CN2CCC(c3nnn4cnc5[nH]ccc5c34)CC2)o1 [compound 143] | 0.12 µM | – | 0.0056 µM | 0.0025 µM

Source: patent US9216999B2, “Substituted pyrrolo[2,3-h][1,6]naphthyridines and compositions thereof as JAK inhibitors” (priority 2011, dated 2015)
